# According to ChEMBL document CHEMBL5241100, “Sulfonamide derivatives as potential anti-cancer agents and their SARs elucidation” (Eur J Med Chem, 2021):
# Test system: HCT-116
# Assay: cells
# Settings: Homo sapiens, HCT-116, 48 h
smiles,measurement,value
Nc1ccc(S(=O)(=O)Nc2ccsc2-c2nc(-c3ccccc3)no2)cc1,IC50,6 µM
